Test results reported in patent US5928932A, “Isolated gene encoding an enzyme with UDP-glucose pyrophosphorylase and phosphoglucomutase activities from Cyclotella cryptica” (priority 1996, dated 1999).

Columns and labels:
[1] = test system: O=P(O)(O)O[C@H]1O[C@H](CO)[C@@H](O)[C@H](O)[C@H]1O; assay: purified protein, by the assay type; conditions: other: highly purified enzyme, double reciprocal plot, FIG. 3A, pH 7.8
[2] = test system: O=P(O)(O)OC[C@H]1OC(O)[C@H](O)[C@@H](O)[C@@H]1O; assay: purified protein, by the assay type; conditions: other: purified enzyme; 10 μM glucose-1,6-diphosphate included; FIG. 3B; pH 7.8; 30.0 °C

PGMase portion of the UGPase/PGMase enzyme (Cyclotella cryptica)
Km ([1]; 25.0 °C): 87 µM

UGPase portion of the UGPase/PGMase enzyme (Cyclotella cryptica)
Km ([1]; 30.0 °C): 81 µM

purified UGPase/PGMase protein (Cyclotella cryptica)
Km [2]: 125 µM
